Assay results published in patent US4743606A, “3-[2-(3',5'-di-t-butyl-4'-hydroxyphenyl)ethenyl]pyridine having anti-inflammatory and anti-arthritic properties” (Boehringer Ingelheim Pharmaceuticals, Inc., priority 1986, dated 1988).

By UniProt entry, the sequences of proteins in these tests, tags left out. Residues count along the entry.
UniProt P23219, 24-599: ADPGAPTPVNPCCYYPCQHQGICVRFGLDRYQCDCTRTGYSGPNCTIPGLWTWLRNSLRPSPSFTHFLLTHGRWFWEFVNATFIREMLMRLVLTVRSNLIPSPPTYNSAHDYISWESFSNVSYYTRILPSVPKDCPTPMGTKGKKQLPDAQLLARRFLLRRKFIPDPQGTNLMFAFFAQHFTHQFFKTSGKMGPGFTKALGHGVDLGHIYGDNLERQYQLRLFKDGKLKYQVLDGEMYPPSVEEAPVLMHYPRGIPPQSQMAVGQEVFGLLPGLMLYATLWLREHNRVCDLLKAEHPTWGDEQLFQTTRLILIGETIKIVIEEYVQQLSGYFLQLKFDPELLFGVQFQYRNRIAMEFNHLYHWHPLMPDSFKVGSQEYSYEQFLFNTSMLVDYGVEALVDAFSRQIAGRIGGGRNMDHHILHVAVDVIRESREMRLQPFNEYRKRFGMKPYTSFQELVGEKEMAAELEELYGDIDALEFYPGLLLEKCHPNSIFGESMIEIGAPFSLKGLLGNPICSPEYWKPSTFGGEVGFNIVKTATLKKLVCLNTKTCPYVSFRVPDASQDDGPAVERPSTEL

Tests used:
in vivo = conditions: rat
Cyclooxygenase [1] = biological target: T1, Cyclooxygenase (Homo sapiens, UniProt P23219); conditions: in words
Cyclooxygenase [2] = biological target: T1, Cyclooxygenase; assay: cell-based
[3] = read-out: % Inhibition of Cyclooxygenase

Compound: CC(C)(C)c1cc(C=Cc2cccnc2)cc(C(C)(C)C)c1O [Compound 1, 3-[2-(3,5-di-t-butyl-4-hydroxyphenyl)ethenyl]-pyridine]
- selectivity ratio (in vivo): 50
- inhibition of cyclooxygenase (Cyclooxygenase [1]): inhibit
- IC50 (Cyclooxygenase [2]): 900 nM
- inhibition at 0.05 µM (Cyclooxygenase [2]; [3]): 7%
- inhibition at 0.1 µM (Cyclooxygenase [2]; [3]): 11%
- inhibition at 0.33 µM (Cyclooxygenase [2]; [3]): 25%
- inhibition at 0.66 µM (Cyclooxygenase [2]; [3]): 50%
- inhibition at 1 µM (Cyclooxygenase [2]; [3]): 53%
- inhibition at 10 µM (Cyclooxygenase [2]; [3]): 59%
